Experimental data published in patent US10759795B2, “Aza-A-ring indenoisoquinoline topoisomerase I poisons” (Purdue Research Foundation, priority 2016, dated 2020).
pIC50: −log10 of the molar value.

Tests used:
[1] = target: T1, recombinant human TDP2 (Homo sapiens, UniProt O95551); test: Recombinant TDP2 assay; assay type: biochemical; conditions: recombinant human TDP2, gel-based; read-out: TDP2: IC50 values for the inhibition of TDP2
T1 sequence (O95551 1-362): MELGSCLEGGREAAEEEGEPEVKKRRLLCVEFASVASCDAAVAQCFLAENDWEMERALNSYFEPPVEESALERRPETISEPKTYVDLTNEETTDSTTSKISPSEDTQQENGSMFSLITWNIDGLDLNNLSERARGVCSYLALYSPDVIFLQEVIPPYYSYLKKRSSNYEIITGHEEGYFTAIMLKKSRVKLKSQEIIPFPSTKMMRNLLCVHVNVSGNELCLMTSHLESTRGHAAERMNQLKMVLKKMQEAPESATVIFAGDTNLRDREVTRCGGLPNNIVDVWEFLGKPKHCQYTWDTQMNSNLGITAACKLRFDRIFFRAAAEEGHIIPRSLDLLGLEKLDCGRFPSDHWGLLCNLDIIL
Method: TDP2 reactions were carried out as described previously with the following modifications (Gao, R., et al., J. Biol. Chem. 2012, 287, 30842-30852). The 19-mer single-stranded oligonucleotide DNA substrate containing a 5′-phosphotyrosine (Y19, α^32P-cordycepin-3′-labeled) was incubated at 1 nM with 25 pM recombinant human TDP2 in the absence or presence of inhibitor for 15 min at room temperature in the LMP2 assay buffer containing 50 mM Tris-HCl, pH 7.5, 80 mM KCl, 5 mM MgCl2, 0.1 mM EDTA, 1 mM DTT, 40 μg/mL BSA, and 0.01% Tween 20. Reactions were terminated and treated similarly to recombinant TDP1 reactions.
TDP2, as opposed to TDP1, cleaves the phosphotyrosyl linkage in 5′-phosphotyrosyl-DNA oligonucleotides.

[2] = tested on: 60 human cancer cell lines; test: NCI-60 single-dose cytotoxicity assay; assay type: cell-based; conditions: mean-graph midpoint of percent growth of 60 human cancer cell lines, 10 μM drug, 48 h, relative to no-drug control and time zero
Method: The new indenoisoquinolines were evaluated for cancer cell growth inhibitory activities. The National Cancer Institute's NCI-60 cytotoxicity assay measures the ability of test agents to inhibit the growth of approximately 60 different cancer cell lines. In the initial single-dose assay, cells are treated with a 10 μM dose of test agent. The growth of treated cells versus untreated cells is then compared. If a test agent induces a sufficiently low mean growth percent, it is promoted to five-dose testing to determine a mean graph midpoint (MGM) GI50 value. In five-dose testing, cells are treated with test agent concentrations ranging from 10^−8 to 10^−4 M. The concentration required to achieve 50% growth inhibition in a particular cell line is calculated. In situations in which this value is greater than 100 μM or less than 0.01 μM, it is recorded as 100 μM and 0.01 μM, respectively. The values for each of the tested cell lines are averaged to obtain a mean graph midpoint (MGM) GI50 value. MGM GI50 values are often, but not always, determined from two separate rounds (Table 1).

**Q.** What does the source list for `CN(C)CCCn1c2c(c3ccncc3c1=O)C(=O)c1ccccc1-2` [Compound 46, 3-Aza-5,6-dihydro-6-(3-(dimethylamino)propyl)-5,11-dioxo-11H-indeno[1,2-c]isoquinoline]?
**A.** pIC50 [1]: 4.10; Mean Growth % [2]: −9.25%
